Laboratory results from US20140038920A1, “TFEB PHOSPHORYLATION INHIBITORS AND USES THEREOF” (FONDAZIONE TELETHON, priority 2011, published 2014).

What was measured:
TFEB target genes = test: qPCR of TFEB target genes in primary hepatocytes (FIG. 21B, C); assay type: cell-based, mouse; settings: hepatocytes from control mice (Tcfebflox/flox)
Text: (§1) Subsequently, cells were lysed and protein extracts were immunoblotted with the indicated antibodies. […] Quantitative PCR (qPCR) of TFEB target genes in primary hepatocytes from control (flox/flox) and Tcfeb−/− (flox/flox; alb-Cre) mice. […] The expression levels are shown as % increased expression of the treated versus the corresponding untreated samples. Values represent means±s.d. of three independent hepatocyte preparations (three mice/genotype). Student's t-test (two tailed) *P-value ≦0.05.

ERK = test: p-ERK levels in primary hepatocytes (FIG. 21A); assay type: cell-based, mouse; settings: primary hepatocytes treated overnight
Text: as §1

## CCN(CC)CCCC(C)Nc1ccnc2cc(Cl)ccc12 (centres unmarked) [chloroquine]
TFEB target genes
  expression of TFEB target genes: upregulated
ERK
  levels of p-ERK: unaffected
